The target of assay [1] is T1, Neuronal acetylcholine receptor subunit alpha-4 (Homo sapiens, UniProt P43681). The experiment in a line: ASSAY_NAME: ChEMBL_558773 (CHEMBL1020766) DESCRIPTION: Displacement of [3H]epibatidine from alpha4beta2 nAChR expressed in HEK293 cells. For orientation: In a radioligand displacement assay an active substance lowers the binding of a labelled ligand.
Assay [2] has as its target T1, Neuronal acetylcholine receptor subunit alpha-4. The experiment in a line: ASSAY_NAME: ChEMBL_558775 (CHEMBL1020768) DESCRIPTION: Displacement of [3H]epibatidine from alpha4beta4 nAChR expressed in HEK293 cells.

Protein sequences, listed by entry. Tags and fused reporters are not part of them. Residues count along the entry.
UniProt P43681, 27-627 limits assumed: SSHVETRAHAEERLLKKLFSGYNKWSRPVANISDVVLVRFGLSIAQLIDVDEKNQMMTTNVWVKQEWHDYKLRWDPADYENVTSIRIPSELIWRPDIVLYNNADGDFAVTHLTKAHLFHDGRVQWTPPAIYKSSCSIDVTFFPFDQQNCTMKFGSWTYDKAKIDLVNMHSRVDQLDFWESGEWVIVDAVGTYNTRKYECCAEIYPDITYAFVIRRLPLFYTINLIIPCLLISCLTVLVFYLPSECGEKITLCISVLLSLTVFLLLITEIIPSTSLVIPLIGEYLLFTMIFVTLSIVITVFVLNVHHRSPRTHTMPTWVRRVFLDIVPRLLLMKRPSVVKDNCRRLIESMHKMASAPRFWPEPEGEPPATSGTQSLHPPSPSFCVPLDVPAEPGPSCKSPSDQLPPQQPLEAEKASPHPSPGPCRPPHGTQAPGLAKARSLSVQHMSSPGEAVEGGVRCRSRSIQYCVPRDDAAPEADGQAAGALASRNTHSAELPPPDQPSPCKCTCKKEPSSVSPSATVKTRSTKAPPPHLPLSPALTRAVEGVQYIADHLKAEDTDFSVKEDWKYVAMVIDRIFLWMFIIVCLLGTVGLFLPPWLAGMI

One molecule from BindingDB's records for 19027295 can be followed below.

One may read the Ki as the dissociation constant of the complex between target and ligand, obtained from inhibition or displacement.

`CN(C)C(=O)OCCC(C1CC1)N(C)C` (configuration not stated): the values for the Ki in assay [1] and in assay [2] were 6.31 µM and 3.98 µM, respectively.
